Reference: patent US8614245B2, “Crystalline (1r,4r)-6′-fluoro-N,N-dimethyl-4-phenyl-4′,9′-dihydro-3′H-spiro[cyclohexane-1,1′-pyrano[3,4,b]indol]-4-amine” (dated 2013)

Assays:
[1] = solubility in solvents (approximate solubility determination); conditions: in saturated hydrocarbons (n-pentane, n-hexane, n-heptane) and water
[2] = storage of "crystalline form K" at different relative humidity or in vacuum (FT Raman, TG-FTIR, PXRD); conditions: for solid form after storage (FT Raman): two weeks at RT
[3] = stability of crystalline form L at ambient conditions; conditions: ambient conditions (RT, 40-60% r.h.)

## CN(C)[C@]1(c2ccccc2)CC[C@]2(CC1)OCCc1c3cc(F)ccc3[nH]c12
[1]
  solubility: only poorly soluble
[2]; RT, vacuum 100 mbar
  solid form after storage in vacuum (FT Raman, TG-FTIR, PXRD): a new crystalline form (crystalline form L), a desolvated form
[2]; after storage at 55% r.h.
  water content (TG-FTIR): 7.8%
[2]; after storage at 97% r.h.
  water content (TG-FTIR): 9.0%
[2]; 55% r.h. (saturated Mg(NO3)2)
  solid form after storage (FT Raman): a mixture of crystalline form B and “crystalline form K” was obtained
[2]; 79% r.h. (saturated NH4Cl)
  solid form after storage (FT Raman): a mixture of crystalline form B and “crystalline form K” was obtained
[2]; 97% r.h. (saturated K2SO4)
  solid form after storage (FT Raman): crystalline form B was obtained
[3]
  stability of the solid form: slowly reconverts into crystalline form B
